Measurements published in PMC6030254.

Molecular target: T1, Mannan-binding lectin (MBL) of MBL-sufficient serum (human (endogenous in serum)), P11226
T1 chain: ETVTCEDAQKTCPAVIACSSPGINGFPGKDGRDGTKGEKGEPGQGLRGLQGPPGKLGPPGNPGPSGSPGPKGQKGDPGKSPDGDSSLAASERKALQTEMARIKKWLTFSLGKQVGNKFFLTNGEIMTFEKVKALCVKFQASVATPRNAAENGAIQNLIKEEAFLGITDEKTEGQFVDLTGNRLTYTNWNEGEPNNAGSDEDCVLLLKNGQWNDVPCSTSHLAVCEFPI
Experiment: SEC; serum fractionated on Superdex 200 10/300 GL in veronal-buffered saline with 140 mM NaCl, 0.5 ml/min, column calibrated with markers; the protein in each 500 µl fraction detected by ELISA (on mannan, mannan-bound rMBL or acetylated BSA); relative sizes
Details: remark: other sources report otherwise

stoichiometry N: 3
B1: Mannan-binding lectin (MBL) of MBL-sufficient serum, P11226 21-248 (natural protein)
chain: T1 chain
